Experimental data published in US8530235B2, “Medium that supports culture of an oocyte and modulation of granulosa cell apoptosis” (Adelaide Research & Innovation Pty Ltd., priority 2005, dated 2013).

Columns and labels:
cumulus cells = test: Cumulus cell apoptosis in oocytectomized complexes (OOX) and COC, TUNEL with confocal microscopy; format: cell-based, Bovine; conditions: media supplemented with FSH (0.1 IU/ml), 24 h
Description: Bovine ovaries were collected from local abattoir and transported to the laboratory in warm saline (30-35° C.). Cumulus-oocyte complexes (COC) were aspirated from antral follicles (2- to 8-mm diameter) using an 18-gauge needle and a 10-ml syringe containing ˜2 ml aspiration media (Hepes-buffered Tissue Cultured Medium-199: TCM-199, ICN Biochemicals, Irvine, Calif., USA) supplemented with 50 μg/ml kanamycin (Sigma-Aldrish, St. louis, Mo.), 4 mg/ml fatty acid-free bovine serum albumin (FAF-BSA) (ICPbio ltd, Auckland, NZ). […]
CC apoptoic DNA was detected using TUNEl (Roche Diagnostic, Penzberg, Germany) according to the manufacturer's instructions. […]
Apoptosis in COC and OOX was visualised and quantified using confocal microscopy. Dual fluorescence emission from CC was detected using a Nikon C1 Confocal Scanning Head and a Nikon TE2000E microscope (Nikon, Tokyo, Japan). […]
In order to generate an accurate representation of the overall apoptotic incidence for all complexes, the depth of each complex was measured through a Z series to divide the construct into three percentiles (optical Z plane sections) at 25%, 50% and 75%. These optical section images were acquired and saved as independent colour channels (green, apoptotic cumulus fluorescence and red, nuclear cumulus fluorescence). […]

[1] = test system: cumulus expansion of oocytectomised (OOX) complexes; test: FSH-induced cumulus expansion score of OOX complexes; format: cell-based, mice; conditions: score 0 (no expansion) to +4 (maximum expansion); mean ±SEM; OOX complexes with FSH
Description: Members of the TGF-β superfamily are prime candidates for the mouse cumulus expansion-enabling factor (CEEF). This study was conducted to examine TGF-β superfamily processes regulating cumulus expansion. COCs were collected from eGG-primed mice and the oocyte microsurgically removed to generate oocytectomised (OOX) complexes. An established scoring system was used to measure FSH-induced cumulus expansion; 0 (no expansion) to +4 (maximum expansion). […] The type-I receptors for GDF9 and […] are ALK5 and ALK4, respectively. We tested the ability of an ALK4/5/7 kinase inhibitor to neutralize cumulus expansion.

FSH: Follicle stimulating hormone (Organon), 0.1 IU/ml [reference compound]
decrease in incidence of cumulus cell apoptosis in COCs (cumulus cells; COC without FSH 9%): 6% | decrease in incidence of cumulus cell apoptosis in OOXs (cumulus cells; OOX without FSH 35%): 10% | cumulus expansion score [1]: 0
